Tested on: Spinacia oleracea
Assay: Inhibition of photophosphorylation in Spinacia oleracea (spinach) leaves chloroplasts by titrimetry
Type: functional
Summary of the method: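 Intact spinach chloroplasts (20 μg Chl/mL) were osmotically broken in 3 mL of weakly buffered medium: 100 mM sorbitol, 10 mM KCl, 5 mM MgCl2, 0.5 mM KCN, 1 mM tricine-KOH pH 8.0, 50 μM MV and 1 mM ADP. ATP synthesis was taken from the medium alkalization rate in the linear part of illumination, calibrated by HCl back-titration, as μmol ATP (mg Chl)-1 h-1. I50 was obtained from concentration-activity plots; three replicates.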

Compound	inhibition
C[C@H]1C(=O)CC[C@@H]2[C@]1(C)CC[C@H]1[C@@]2(C)CC[C@@]2(C)[C@@H]3CC(C)(C)CC[C@]3(CO)CC[C@]12C [CANOPHYLLOL]	Dose-dependent effect
C[C@H]1[C@@H](O)CC[C@@H]2[C@]1(C)CC[C@H]1[C@@]2(C)CC[C@@]2(C)[C@@H]3CC(C)(C)CC[C@]3(C)CC[C@]12C [EPIFRIEDELINOL]	Dose-dependent effect
